In patent US4438104A, “Endorphins having placental or pancreatic origin” (Endorphin, Inc., priority 1982, dated 1984):

System: opiate receptors in rat brain homogenates
Test: Radioreceptor assay (RRA): displacement of H^3-Naloxone binding in rat brain tissue
Conditions: stereospecificity

## CN1CC[C@]23CCCC[C@H]2[C@H]1Cc1ccc(O)cc13 [Levorphanol]
  potency in displacing Naloxone relative to enantiomer Dextrophan: 500 times
